{
  "source": "patent US20040248211A1",
  "about": "“ICAM-related protein” (priority 1992, published 2004)",
  "test_system": "SCID mice engrafted with human T cells",
  "assay": "Graft-versus-host disease in Hu-PBMC/SCID chimeras",
  "data": [
    {"molecule": "ICR-8.1: anti-ICAM-R monoclonal antibody, IgG1, domain 1, ATCC HB 11232 (antibody, V domains shown) VH: EIQLQQTGPELVKPGASVKISCKASGYSFTDCIILWVKQSHGKGLEWIGKINPYFGTTTYNLKFKGKATLTVDKSSSTAHMQLNSLTSEDSAVYYCARKEAYPDAMDYWGQGTSVTVSS VL: DAVMTQTPLSLPVSLGDQASISCRSSQSLVHSNGDTYLHWYLQKPGQSPQLLIYKVSNRFSGVPDRFSGSGSGTDFTLKLSRVEAEDLGVYFCSQSTHVPYTFGGGTKLEIK", "values": [
      {"measurement": "human T-cell infiltration and splenic repopulation", "setting": "5 mg/mouse i.v. three times weekly", "result": "reduced human T-cell infiltration without preventing splenic repopulation"},
      {"measurement": "animals developing lethal GVHD within fifty days after transplant", "setting": "5 mg/mouse i.v. three times weekly from day eleven, PBS group 7 of 11 (64%) died", "result": "0/12"}
    ]}
  ]
}
